{"source": "patent US11407977B2", "about": "“Tissue scaffolds for electrically excitable cells” (Innovative Surface Technologies, Inc., priority 2013, dated 2022)", "system": "mesenchymal stem cells", "assay": "Alkaline phosphatase (ALP) activity of cells on BMP-2-conjugated nanofiber scaffolds", "assay_type": "cell-based", "details": "day 3, day 7 and day 14 of culture; compared with soluble BMP-2 (500 ng/ml)", "protocol": "Muscle myoblast cells. […] The scaffolds were prepared as described in Example 1. An amount of the formed nanofibrous mesh was immersed in 20 ml of 50 mg/ml PAA aqueous solution for 30 minutes in a quartz round dish (Quartz Scientific, Inc., Fairport Harbor, Ohio). Mild agitation was applied to remove the air bubbles trapped in the nanofibers. Two minutes of UV irradiation was then applied to the mixture using a UVM400 ultraviolet lamp (Harland Medical, Eden Prairie, Minn., distance from the light source was 8 inches). The nanofiber mesh was flipped over and UV illumination applied again. The coated nanofiber meshes were rinsed with distilled water three times and washed overnight. The functionalized nanofibers (which now contained carboxy reactive groups) were then lyophilized. […]\nTo assess the bioactivity of immobilized BMP-2, alkaline phosphatase (ALP) activity on mesenchymal stem cells seeded on the conjugated scaffolds and on control scaffolds with soluble BMP-2 (500 ng/ml) was determined for day 3, day 7 and day 14 of cell culture. […]\nCells were lysed with 2 ml of extraction reagent (Sigma-Aldrich), and 50 μl of the cell extract and ALP standard solutions were incubated with 100 μl of p-nitrophenyl phosphate solution at room temperature for one hour. The p-nitrophenol production was measured at 405 nm. ALP expression was calculated based on a standard curve.", "data": [{"molecule": "conjugated BMP-2: BMP-2 immobilized on carboxy-functionalized photoreactive PCL nanofibers through EDC/NHS coupling (conjugate, UniProt P12643 283-396, looked up, immobilized on photoreactive PCL nanofibers) Bone morphogenetic protein 2: QAKHKQRKRLKSSCKRHPLYVDFSDVGWNDWIVAPPGYHAFYCHGECPFPLADHLNSTNHAIVQTLVNSVNSKIPKACCVPTELSAISMLYLDENEKVVLKNYQDMVVEGCGCR", "values": [{"measurement": "bioactivity of immobilized BMP-2 (ALP activity)", "result": "retained activity at similar levels to soluble protein"}]}]}
